In this experiment the target is Axl (Homo sapiens, UniProt P30530). As to the kind of experiment: Phospho-Akt in-cell Western assay. The settings on record: Hela cells, stimulated by Axl-antibody cross-linking, phospho-Akt chemiluminescence; Table 1, formula (Ia). The protocol: Phospho-Akt in-Cell Western Assay
The compounds of the invention were tested in the following assay for their ability to inhibit Axl activity. […]

By UniProt entry, the sequences of proteins in these tests, tags left out. Residues count along the entry.
UniProt P30530, 26-894 limits assumed: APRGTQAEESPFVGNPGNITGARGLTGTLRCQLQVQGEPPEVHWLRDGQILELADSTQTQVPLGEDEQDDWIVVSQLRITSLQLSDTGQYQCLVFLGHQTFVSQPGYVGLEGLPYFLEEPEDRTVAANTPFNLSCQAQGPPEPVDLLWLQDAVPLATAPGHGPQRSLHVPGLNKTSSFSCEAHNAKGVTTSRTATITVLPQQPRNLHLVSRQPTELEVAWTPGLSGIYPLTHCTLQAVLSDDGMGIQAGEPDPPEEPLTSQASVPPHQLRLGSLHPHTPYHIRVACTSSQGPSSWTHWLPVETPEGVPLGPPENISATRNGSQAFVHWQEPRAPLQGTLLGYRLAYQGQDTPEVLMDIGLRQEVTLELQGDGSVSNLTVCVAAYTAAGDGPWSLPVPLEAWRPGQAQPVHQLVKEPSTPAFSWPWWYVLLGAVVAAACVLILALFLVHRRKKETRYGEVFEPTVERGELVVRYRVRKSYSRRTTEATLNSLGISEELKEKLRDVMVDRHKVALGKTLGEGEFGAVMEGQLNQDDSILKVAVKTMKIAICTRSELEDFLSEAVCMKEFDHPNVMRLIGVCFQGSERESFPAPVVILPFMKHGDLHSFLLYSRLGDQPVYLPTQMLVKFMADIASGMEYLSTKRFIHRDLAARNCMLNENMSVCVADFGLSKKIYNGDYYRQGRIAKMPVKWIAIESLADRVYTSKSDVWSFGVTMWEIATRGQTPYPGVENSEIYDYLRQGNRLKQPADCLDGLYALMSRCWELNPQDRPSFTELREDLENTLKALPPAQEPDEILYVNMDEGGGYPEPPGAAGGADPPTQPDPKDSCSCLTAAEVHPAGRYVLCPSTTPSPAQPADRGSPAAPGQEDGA

For the compound `Nc1nc(Nc2ccc3c(c2)CC[C@@H](NCc2ccc(Cl)s2)CC3)nn1-c1cc2c(nn1)-c1ccccc1CCC2`, the IC50 – broadly, the midpoint of a concentration-inhibition curve – was in the range of 1 to 10 µM.

These data come from patent publication US9173882B2, “Polycyclic heteroaryl substituted triazoles useful as Axl inhibitors” (Rigel Pharmaceuticals, Inc., priority 2008, dated 2015).
